From EP4470554A1, “USE OF KALLIKREIN I OR DERIVATIVE THEREOF IN TREATMENT OF VCI, PSCI OR CSVD” (Zonhon Biopharma Institute, Inc., priority 2022, dated 2023)

By UniProt entry, the sequences of proteins in these tests, tags left out.
UniProt P30411, whole entry: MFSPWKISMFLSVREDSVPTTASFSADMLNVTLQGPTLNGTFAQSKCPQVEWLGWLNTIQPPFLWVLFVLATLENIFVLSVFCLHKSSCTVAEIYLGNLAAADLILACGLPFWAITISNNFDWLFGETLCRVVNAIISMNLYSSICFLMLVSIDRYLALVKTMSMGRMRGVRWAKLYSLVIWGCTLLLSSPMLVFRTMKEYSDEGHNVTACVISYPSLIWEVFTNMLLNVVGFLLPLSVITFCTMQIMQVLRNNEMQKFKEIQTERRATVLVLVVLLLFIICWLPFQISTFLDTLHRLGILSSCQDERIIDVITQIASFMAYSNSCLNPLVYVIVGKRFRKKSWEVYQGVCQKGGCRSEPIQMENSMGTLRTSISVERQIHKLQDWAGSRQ

Target: T1, B2 receptor (Homo sapiens, UniProt P30411)
T1 construct: expressed in transfected cells; host or cells: B2-NFAT-CHO-K1 cell line (CHO-K1)
Assay: Activation of downstream signals of the B2 receptor by lysyl bradykinin Lys-BK (ERK1/2 and CREB phosphorylation, Western blot)
Type: cell-based
Conditions: CHO-K1 cells (with B2 receptor); 1µM, 0.5h
Protocol: CHO-K1 cells (with B2 receptor) in the logarithmic growth phase were collected, and viable cell counts were performed using a hemacyte counting plate. The live cell suspension was adjusted to 3 × 10^6cells/mL with medium and seeded in 6-well cell culture plates to a final cell concentration of 3 × 10^5 cells/ well. The cells were cultured in a CO2 incubator at 37.0°C and 5.0% CO2 for 24-48 hours. When the cell density was more than 90%, the cells were washed twice with PBS. The sample (Lys-BK) was prepared with F12 medium in advance, and 1ml of sample was added to each well with a final concentration of 1µM, while the control group was F12 medium. Then the cell culture plate was placed in an incubator at 37.0°C and 5.0% CO2 for 0.5h. Then, the 6-well plate was removed from the incubator and washed twice with PBS, and the PBS was aspirated after the last wash. The prepared protein lysate (RIPA, PMSF, phosphatase inhibitor) was added at 80µL/ well, and the bottom of the well was ground back and back with a scraper to accelerate cell lysis for 1min. The cell debris and the lysate was transferred to a centrifuge tube and centrifuged at 12000rpm for 10min at 4°C. […] The same amount of protein samples and pre-stained markers were loaded into 10% SDS-PAGE for gel running, membrane transfer, blocking, antibody incubation, and luminescence identification. […]

Substance: lysyl bradykinin [Lys-BK]
- phosphorylation of downstream CREB (qualitative): could activate the phosphorylation
- phosphorylation of downstream p-ERK1/2 (qualitative): could activate the phosphorylation
